Test results as given in patent publication US20140287990A1 (published 2014).

B1: GST-Azu 36-128 (GST fused in frame to azurin amino acids 36 to 128) (other)
chain: MSPILGYWKIKGLVQPTRLLLEYLEEKYEEHLYERDEGDKWRNKKFELGLEFPNLPYYIDGDVKLTQSMAIIRYIADKHNMLGGCPKERAEISMLEGAVLDIRYGVSRIAYSKDFETLKVDFLSKLPEMLKMFEDRLCHKTYLNGDHVTHPDFMLYDALDVVLYMDPMCLDAFPKLVCFKKRIEAIPQIDKYLKSSKYIAWPLQGWQATFGGGDHPPKPGNLPKNVMGHNWVLSTAADMQGVVTDGMASGLDKDYLKPDDSRVIAHTKLIGSGEKDSVTFDVSKLKEGEQYMFFCTFPGHSALMKGTLTLK
notes: Azurin fragment cloned into the BamHI and EcoRI sites of pGEX-5X
B2: GST-Azu 88-113 (GST fused in frame to azurin amino acids 88 to 113) (other)
chain: MSPILGYWKIKGLVQPTRLLLEYLEEKYEEHLYERDEGDKWRNKKFELGLEFPNLPYYIDGDVKLTQSMAIIRYIADKHNMLGGCPKERAEISMLEGAVLDIRYGVSRIAYSKDFETLKVDFLSKLPEMLKMFEDRLCHKTYLNGDHVTHPDFMLYDALDVVLYMDPMCLDAFPKLVCFKKRIEAIPQIDKYLKSSKYIAWPLQGWQATFGGGDHPPKGSGEKDSVTFDVSKLKEGEQYMFFCT

Assays:
CD4 = molecular target: T1, CD4; test: SPR, CD4 immobilised on CM5 (CD4-CM5), equilibrium response fitted to Req=Rmax/(1+(Kd/C))
T1 construct: Bought protein; Used both immobilised on CM5 and as eluent

[1] = molecular target: T2, DC-SIGN (DC-specific intercellular adhesion molecule 3-grabbing nonintegrin) (UniProt Q9NNX6 62-404, limits assumed); test: SPR, DC-SIGN immobilised on CM5, equilibrium response fitted to Req=Rmax/(1+(Kd/C))
T2 construct: Immobilised on a CM5 sensor chip
T2 sequence (looked up): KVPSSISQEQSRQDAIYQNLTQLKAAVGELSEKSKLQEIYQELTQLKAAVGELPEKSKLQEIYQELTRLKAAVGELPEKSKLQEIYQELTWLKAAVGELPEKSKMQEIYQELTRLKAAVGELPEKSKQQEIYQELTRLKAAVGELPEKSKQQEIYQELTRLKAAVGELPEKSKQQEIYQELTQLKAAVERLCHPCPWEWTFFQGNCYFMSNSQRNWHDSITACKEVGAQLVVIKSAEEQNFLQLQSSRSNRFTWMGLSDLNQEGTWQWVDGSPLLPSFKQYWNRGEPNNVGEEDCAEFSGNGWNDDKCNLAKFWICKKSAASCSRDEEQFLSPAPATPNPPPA

| Binder | Kd (CD4) | Kd [1] |
| --- | --- | --- |
| B1 | 0.34 nM |  |
| B2 |  | 5.98 nM |
